pIC50: −log10 of the molar value.
What was measured:
[1] = target: human SCD5 (Homo sapiens (Human), UniProt Q86SK9); experiment: Yeast growth assay, strain expressing human SCD5 as the sole desaturase (reduced growth as surrogate for SCD inhibition); assay type: cell-based; conditions: yeast with OLE1 deleted expressing human SCD5 from a plasmid; growth read as OD600 after 40 h at 30° C.; top drug concentration 33.3 μM
Procedure: (§1) Strains expressing SCD1 or SCD5 as the sole desaturase, the human SCD1 and SCD5 genes were used to evaluate inhibition of SCD1/SCD5 using reduced growth as a surrogate for SCD inhibition. These yeast strains express human SCD1 or SCD5 from a plasmid harbored in a strain in which the yeast OLE1 gene is deleted.
(§2) All compound profiling experiments were performed using the same basic protocol. Yeast were cultured using standard techniques in complete synthetic media lacking uracil and containing yeast nitrogen base supplemented with 2% (w/v) glucose (SD-Ura) Starter cultures were inoculated in 3 mL SD-Ura media containing 0.01% tween and 0.2 mM palmitoleic and oleic acid. Cultures were incubated overnight in a 30° C. shaker incubator (225 rpm). Saturated morning cultures were centrifuged, washed in SD-Ura media lacking TWEEN-20 and fatty acids, and then diluted 1:20 in fresh SD-Ura media also lacking TWEEN-20 and fatty acids.
(§3) Compound administration was performed in two separate steps. First, 15 μL of SD-Ura was dispensed into clear 384-well assay plates using a MULTIDROP™ Combi reagent dispenser. […]
(§4) After yeast delivery, assay plates were incubated under humidified conditions at 30° C. for 40 h. Yeast growth was monitored by reading the OD600 of each well using a microplate reader (Perkin Elmer EnVision™).

By UniProt entry, the sequences of proteins in these tests, tags left out. Where a name states a change or a piece, a line headed by the entry shows the natural chain unless it says otherwise.
UniProt Q86SK9: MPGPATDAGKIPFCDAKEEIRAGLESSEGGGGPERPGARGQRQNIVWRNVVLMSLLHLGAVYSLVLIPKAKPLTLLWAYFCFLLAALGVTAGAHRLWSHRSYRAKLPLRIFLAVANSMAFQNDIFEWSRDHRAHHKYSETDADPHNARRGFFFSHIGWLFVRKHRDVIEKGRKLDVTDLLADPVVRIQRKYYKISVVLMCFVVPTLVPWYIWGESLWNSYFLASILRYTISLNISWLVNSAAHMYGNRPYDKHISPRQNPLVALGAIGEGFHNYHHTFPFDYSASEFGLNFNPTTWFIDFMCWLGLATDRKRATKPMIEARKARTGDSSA
UniProt O00767: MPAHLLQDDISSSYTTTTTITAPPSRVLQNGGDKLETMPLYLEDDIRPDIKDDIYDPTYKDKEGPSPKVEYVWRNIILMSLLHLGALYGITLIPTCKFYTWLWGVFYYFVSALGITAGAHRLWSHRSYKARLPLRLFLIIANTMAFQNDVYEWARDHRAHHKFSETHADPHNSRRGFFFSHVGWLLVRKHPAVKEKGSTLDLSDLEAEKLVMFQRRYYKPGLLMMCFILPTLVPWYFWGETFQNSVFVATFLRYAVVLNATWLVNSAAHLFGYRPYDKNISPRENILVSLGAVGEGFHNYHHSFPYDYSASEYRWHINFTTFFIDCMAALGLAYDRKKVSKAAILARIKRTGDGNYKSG

[2] = target: human SCD1 (Homo sapiens (Human), UniProt O00767); experiment: Yeast growth assay, strain expressing human SCD1 as the sole desaturase (reduced growth as surrogate for SCD inhibition); assay type: cell-based; conditions: yeast with OLE1 deleted expressing human SCD1 from a plasmid; growth read as OD600 after 40 h at 30° C.; top drug concentration 33.3 μM
Procedure: as §1, §2, §3, §4

Row | pIC50 [1] | pIC50 [2] | Compound
1 | 5.85 |  | CC(C)c1cc(C(=O)Nc2cnn(Cc3cnccc3C(F)(F)F)c2)no1 [Compound 161, 5-isopropyl-N-(1-((4-(trifluoromethyl)pyridin-3-yl)methyl)-1H-pyrazol-4-yl)isoxazole-3-carboxamide]
2 | 5.41 |  | C=C(C)c1cc(C(=O)Nc2cnn(Cc3cnccc3C(F)(F)F)c2)no1 [Compound 166, 5-(prop-1-en-2-yl)-N-(1-((4-(trifluoromethyl)pyridin-3-yl)methyl)-1H-pyrazol-4-yl)isoxazole-3-carboxamide]
3 |  | 5.22 | O=C(Nc1cnn(Cc2cnccc2C(F)(F)F)c1)c1cc(-c2ccncn2)on1 [Compound 200, 5-(pyrimidin-4-yl)-N-(1-((4-(trifluoromethyl)pyridin-3-yl)methyl)-1H-pyrazol-4-yl)isoxazole-3-carboxamide]

— patent US10919885B2, “Compounds and uses thereof” (Yumanity Therapeutics, Inc., priority 2018, dated 2021)
